The values below are quoted from earlier work in paper PMC4594927 (PLoS ONE, 2015).

Sequences of proteins named here, by UniProt entry; tags and fusion partners are left off. A change or cut given only in a name is not applied to a line headed by its entry.
UniProt Q8T6T2: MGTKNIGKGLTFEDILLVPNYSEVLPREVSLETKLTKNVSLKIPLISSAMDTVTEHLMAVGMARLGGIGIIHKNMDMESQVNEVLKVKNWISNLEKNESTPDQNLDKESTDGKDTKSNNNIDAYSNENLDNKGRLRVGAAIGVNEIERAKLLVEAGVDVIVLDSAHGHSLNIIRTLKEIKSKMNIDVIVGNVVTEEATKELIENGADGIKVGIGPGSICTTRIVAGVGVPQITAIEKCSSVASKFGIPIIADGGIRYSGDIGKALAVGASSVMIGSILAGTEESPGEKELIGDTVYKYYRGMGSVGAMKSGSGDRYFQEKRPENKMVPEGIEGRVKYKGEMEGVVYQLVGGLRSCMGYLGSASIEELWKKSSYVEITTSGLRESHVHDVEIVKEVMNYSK

The target in this data set is CpIMPDH (Cryptosporidium parvum, UniProt Q8T6T2). The settings on record: cited from earlier work.

On to `C=C(C)c1cccc(C(C)(C)NC(=O)Nc2ccc(OC)cc2)c1` [P102], for which the Ki was 9 ± 1 nM.

The term Ki denotes a measure of affinity in units of concentration, obtained from inhibition or displacement.
